Results published in patent US8143259B2, “Cold menthol receptor antagonists” (Janssen Pharmaceutica, NV, priority 2008, dated 2012).

Amino acid sequences for entries named in this document (tags omitted). Residues count along the entry.
UniProt Q1A7N1, 1-1104: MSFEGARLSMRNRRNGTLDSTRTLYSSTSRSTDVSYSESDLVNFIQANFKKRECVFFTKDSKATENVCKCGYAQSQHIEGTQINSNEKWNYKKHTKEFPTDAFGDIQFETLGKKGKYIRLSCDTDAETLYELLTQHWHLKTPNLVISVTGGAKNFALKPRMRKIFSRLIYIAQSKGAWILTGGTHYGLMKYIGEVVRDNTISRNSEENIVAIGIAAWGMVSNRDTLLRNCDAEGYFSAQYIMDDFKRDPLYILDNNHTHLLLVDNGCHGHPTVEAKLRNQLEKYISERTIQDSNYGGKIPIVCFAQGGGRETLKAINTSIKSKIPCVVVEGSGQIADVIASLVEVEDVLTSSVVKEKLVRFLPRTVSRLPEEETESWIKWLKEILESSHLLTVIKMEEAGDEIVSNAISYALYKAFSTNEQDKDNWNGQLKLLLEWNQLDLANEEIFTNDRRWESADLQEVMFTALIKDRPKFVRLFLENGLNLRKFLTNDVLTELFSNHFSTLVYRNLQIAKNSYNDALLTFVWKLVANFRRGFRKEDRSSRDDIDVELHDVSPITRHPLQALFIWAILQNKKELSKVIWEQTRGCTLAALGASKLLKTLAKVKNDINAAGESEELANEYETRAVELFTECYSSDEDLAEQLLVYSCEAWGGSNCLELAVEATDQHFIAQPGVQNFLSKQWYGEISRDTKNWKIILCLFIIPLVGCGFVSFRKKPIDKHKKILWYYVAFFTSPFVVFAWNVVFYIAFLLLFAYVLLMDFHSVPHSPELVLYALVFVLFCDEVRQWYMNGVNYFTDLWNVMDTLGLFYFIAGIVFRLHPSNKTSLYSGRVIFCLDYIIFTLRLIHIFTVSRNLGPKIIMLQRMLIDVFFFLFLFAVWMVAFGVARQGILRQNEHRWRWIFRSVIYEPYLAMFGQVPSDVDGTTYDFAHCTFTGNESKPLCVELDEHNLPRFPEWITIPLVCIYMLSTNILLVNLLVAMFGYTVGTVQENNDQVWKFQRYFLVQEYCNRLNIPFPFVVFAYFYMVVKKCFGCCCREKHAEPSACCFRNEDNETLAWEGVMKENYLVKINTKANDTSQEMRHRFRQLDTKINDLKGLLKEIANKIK

Target: canine TRPM8 (Canis lupus familiaris, UniProt Q1A7N1)
Assay: In Vitro Canine TRPM8 Functional Assay (Ca2+ fluorescence, icilin activation)
Type: cell-based
Conditions: for % Inh @ 0.2 μM: 0.2 μM compound; for % Inh @ 0.2 μM / % Inh @ 0.5 μM: canine TRPM8 HEK293, icilin; for IC50: HEK293 cells stably expressing canine TRPM8, icilin activation, Ca2+ fluorescence; for % Inh @ 0.5 μM: 0.5 μM compound
Method: The functional activity of compounds of the formula (I) was determined by measuring changes in intracellular calcium concentration using a Ca^2+-sensitive fluorescent dye. The changes in fluorescent signal were monitored by a fluorescence plate reader, either a FLIPR™ (Molecular Devices) or FDSS (Hamamatsu). Increases in intracellular Ca^2+ concentration were readily detected upon activation with icilin.
HEK293 cells stably expressing canine TRPM8 were routinely grown as monolayers in Dulbecco's minimum essential medium supplemented with 10% FBS, 2 mM L-glutamine, 100 units/mL penicillin, 100 ug/mL streptomycin and 400 μg/mL G418. Cells were maintained in 5% CO2 at 37° C. At 24 hrs prior to assay, cells were seeded in black wall, clear-base poly-D-lysine coated 384-well plates (BD Biosciences, NJ, USA) at a density of 5,000 cells per well in culture medium and grown overnight in 5% CO2 at 37° C. On assay day, growth media was removed and cells were loaded with Calcium 3 Dye (Molecular Devices) for 35 min at 37° C., under 5% CO2 and then for 25 min at room temperature and atmosphere. Subsequently, cells were tested for agonist-induced increases in intracellular Ca^2+ levels using FLIPR™ or FDSS. Cells were challenged with compounds of the formula (I) (at varying concentrations) and intracellular Ca^2+ was measured for 5 min prior to the addition of icilin to all wells to achieve a final concentration that produces approximately an 80% maximal response. EC50 or IC50 values for compounds of the present invention were determined from eight-point dose-response studies and represent the concentration of compound required to elicit or inhibit 50% of the maximal response, respectively.
Maximal fluorescence intensity (FI) achieved upon addition of icilin was exported from the FLIPR or FDSS software and further analyzed using GraphPad Prism 3.02 (Graph Pad Software Inc., CA, U.S.A.). Basal FI was subtracted prior to normalizing data to percent of maximal response. Curves were generated using the average of quadruplicate wells for each data point, were analyzed using nonlinear regression of either sigmoidal dose response or sigmoidal dose response (variable slope).

## O=C(C(Cc1c(F)cccc1F)c1ccc(C(F)(F)F)cc1)N1CCC[C@H]1c1ccccc1F (stereo partly drawn)
  % Inh @ 0.2 μM: 92%
  IC50: 11 nM

## O=C(C(Cc1ccccc1F)c1ccc(C(F)(F)F)cc1)N1CCC[C@H]1c1ccccc1F (stereo partly drawn)
  % Inh @ 0.2 μM: 95%
  IC50: 21.4 nM

## COc1ccccc1C1CCCN1C(=O)C(NCc1ccccc1)c1ccc(C(F)(F)F)cc1 (stereo not drawn)
  % Inh @ 0.5 μM: 96%
  IC50: 206 nM

## O=C([C@@H](Nc1ccccc1F)c1ccc(Br)cc1)N1[C@H](CO)CC[C@@H]1c1ccccc1 (single isomer, unassigned)
  IC50: 136 nM

## O=C([C@H](Nc1ccccc1F)c1ccc(Br)cc1)N1[C@H](CO)CC[C@@H]1c1ccccc1 (single isomer, unassigned)
  IC50: 86.1 nM

## N#Cc1ccc(C(Nc2ccccc2)C(=O)N2CCCC2c2ccccc2Cl)cc1 (stereo not drawn)
  % Inh @ 0.5 μM: 100.88%
  IC50: 100 nM

## COc1ccccc1C1CCCN1C(=O)C(CNc1ccccc1F)c1ccc(C(F)(F)F)cc1 (stereo not drawn)
  % Inh @ 0.5 μM: 88%
  IC50: 334 nM
